The text below walks through data of patent US6573253B2, “Methods for the administration of amifostine and related compounds” (MedImmune Oncology Inc., priority 1997, dated 2003).

The data set is described as follows: Phase I three-way crossover study: safety assessments / adverse events (NCI Common Toxicity Criteria). To be noted: 5 minutes after completion of intravenous infusion; pre-infusion 115/58 mm Hg.

Each structure is given as a SMILES string.

Turning to `NCCCNCCSP(=O)(O)O` [Amifostine, S-2-(3-aminopropylamino)ethyl dihydrogen phosphorothioate], the “blood pressure, Subject 1003 (hypotension episode)” value was 99/56.
